One molecule from patent publication US20090138978A1 (GENERAL HOSPITAL, published 2009) can be followed below.

The chains behind the UniProt entries cited, without tags or fusion partners. Residues count along the entry.
UniProt Q09472, 2-2414 limits assumed: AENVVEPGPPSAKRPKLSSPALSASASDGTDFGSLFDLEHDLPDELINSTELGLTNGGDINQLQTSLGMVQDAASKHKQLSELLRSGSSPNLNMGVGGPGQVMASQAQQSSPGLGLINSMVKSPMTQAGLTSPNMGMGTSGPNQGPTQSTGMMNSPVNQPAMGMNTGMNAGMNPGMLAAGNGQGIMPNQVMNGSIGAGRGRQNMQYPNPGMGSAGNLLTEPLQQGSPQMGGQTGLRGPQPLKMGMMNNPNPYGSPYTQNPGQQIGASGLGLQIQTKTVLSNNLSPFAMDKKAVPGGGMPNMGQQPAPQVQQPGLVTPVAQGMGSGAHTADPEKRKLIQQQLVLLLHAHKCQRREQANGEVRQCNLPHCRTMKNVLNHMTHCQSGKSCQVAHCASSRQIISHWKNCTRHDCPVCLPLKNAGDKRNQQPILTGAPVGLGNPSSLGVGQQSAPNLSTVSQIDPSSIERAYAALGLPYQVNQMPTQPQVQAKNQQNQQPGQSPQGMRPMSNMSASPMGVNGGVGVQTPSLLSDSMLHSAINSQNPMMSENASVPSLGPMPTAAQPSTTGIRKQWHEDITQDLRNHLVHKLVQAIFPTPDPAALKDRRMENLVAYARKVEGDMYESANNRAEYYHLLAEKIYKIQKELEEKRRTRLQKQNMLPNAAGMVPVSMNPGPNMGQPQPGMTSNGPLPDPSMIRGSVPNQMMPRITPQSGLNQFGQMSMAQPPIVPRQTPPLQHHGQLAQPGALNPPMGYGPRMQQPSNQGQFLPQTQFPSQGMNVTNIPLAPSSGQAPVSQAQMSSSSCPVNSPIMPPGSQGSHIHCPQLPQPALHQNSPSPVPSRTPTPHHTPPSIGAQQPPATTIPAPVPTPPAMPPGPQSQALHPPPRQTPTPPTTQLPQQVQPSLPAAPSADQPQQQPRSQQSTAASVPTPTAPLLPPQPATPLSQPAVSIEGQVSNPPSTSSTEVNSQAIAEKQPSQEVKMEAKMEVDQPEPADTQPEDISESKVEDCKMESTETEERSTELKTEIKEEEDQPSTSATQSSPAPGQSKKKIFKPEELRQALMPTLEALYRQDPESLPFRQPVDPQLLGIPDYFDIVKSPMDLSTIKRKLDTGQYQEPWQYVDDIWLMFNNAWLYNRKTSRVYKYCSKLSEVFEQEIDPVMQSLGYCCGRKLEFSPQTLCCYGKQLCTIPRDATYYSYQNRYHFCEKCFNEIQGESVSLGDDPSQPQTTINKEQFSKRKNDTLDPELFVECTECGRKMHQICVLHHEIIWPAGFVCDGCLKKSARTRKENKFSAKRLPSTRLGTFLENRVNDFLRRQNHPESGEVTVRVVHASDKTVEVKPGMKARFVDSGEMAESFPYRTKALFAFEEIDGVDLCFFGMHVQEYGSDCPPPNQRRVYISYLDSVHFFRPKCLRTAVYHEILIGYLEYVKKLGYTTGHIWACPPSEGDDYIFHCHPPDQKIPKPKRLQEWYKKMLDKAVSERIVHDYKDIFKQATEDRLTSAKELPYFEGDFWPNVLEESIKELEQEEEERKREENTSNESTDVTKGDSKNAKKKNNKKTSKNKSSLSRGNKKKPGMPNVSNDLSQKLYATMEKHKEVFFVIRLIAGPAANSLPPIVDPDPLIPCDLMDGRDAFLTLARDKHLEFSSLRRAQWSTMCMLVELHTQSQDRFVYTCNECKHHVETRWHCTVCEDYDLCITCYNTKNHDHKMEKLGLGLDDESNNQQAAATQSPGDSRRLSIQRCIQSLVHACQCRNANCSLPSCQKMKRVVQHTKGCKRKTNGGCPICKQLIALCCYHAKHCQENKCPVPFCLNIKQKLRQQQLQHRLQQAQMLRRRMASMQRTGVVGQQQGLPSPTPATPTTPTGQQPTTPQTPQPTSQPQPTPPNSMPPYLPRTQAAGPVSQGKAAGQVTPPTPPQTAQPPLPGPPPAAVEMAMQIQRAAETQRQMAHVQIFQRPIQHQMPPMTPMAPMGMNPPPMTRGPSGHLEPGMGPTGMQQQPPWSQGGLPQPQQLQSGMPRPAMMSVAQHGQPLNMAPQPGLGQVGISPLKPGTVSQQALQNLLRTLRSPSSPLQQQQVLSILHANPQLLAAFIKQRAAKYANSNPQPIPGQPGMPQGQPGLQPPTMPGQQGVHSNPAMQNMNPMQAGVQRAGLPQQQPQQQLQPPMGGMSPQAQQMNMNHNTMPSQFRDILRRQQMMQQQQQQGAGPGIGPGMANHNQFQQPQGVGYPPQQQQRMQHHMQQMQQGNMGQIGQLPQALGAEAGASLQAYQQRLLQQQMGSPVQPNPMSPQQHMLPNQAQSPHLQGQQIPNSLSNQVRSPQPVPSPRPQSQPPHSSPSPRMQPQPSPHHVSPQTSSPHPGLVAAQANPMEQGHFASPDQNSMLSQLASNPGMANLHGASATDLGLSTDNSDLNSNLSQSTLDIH

In the experiment the target is T1, p300 (full-length histone acetyltransferase and nuclear receptor coactivator) (UniProt Q09472, [35S]-methionine labelled in the pull-down assays).
T1 construct: mature; In vitro translated in rabbit reticulocyte lysate for the pull-downs; Expressed from pCMV-p300 in BHK cells for the reporter assay; also called [35S]-p300; radiolabeled in vitro translated full-length p300
Put plainly: GST pull-down with [35S]-labelled in vitro translated full-length p300.

B1: GST control protein (glutathione S-transferase alone) (other, UniProt P08515 1-218, looked up)
chain: MSPILGYWKIKGLVQPTRLLLEYLEEKYEEHLYERDEGDKWRNKKFELGLEFPNLPYYIDGDVKLTQSMAIIRYIADKHNMLGGCPKERAEISMLEGAVLDIRYGVSRIAYSKDFETLKVDFLSKLPEMLKMFEDRLCHKTYLNGDHVTHPDFMLYDALDVVLYMDPMCLDAFPKLVCFKKRIEAIPQIDKYLKSSKYIAWPLQGWQATFGGGDHPPK
notes: Negative control of the GST pull-down assays; also called GST negative control protein
Take B1: the binding result was “no binding”.
